Results from US5693617A, “Inhibitors of the 26s proteolytic complex and the 20s proteasome contained therein” (ProScript, Inc., priority 1995, dated 1997).

Chains of the proteins cited; added tags and fusions are not shown. Residues count along the entry.
UniProt G1T4Q9, 60-263 limits assumed: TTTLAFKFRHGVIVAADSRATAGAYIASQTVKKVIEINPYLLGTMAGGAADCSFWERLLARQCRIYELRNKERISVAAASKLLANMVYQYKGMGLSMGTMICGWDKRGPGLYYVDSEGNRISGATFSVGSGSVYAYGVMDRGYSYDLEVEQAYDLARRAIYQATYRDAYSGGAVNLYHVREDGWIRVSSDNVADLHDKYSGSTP
UniProt G1SU71, 1-241 partner: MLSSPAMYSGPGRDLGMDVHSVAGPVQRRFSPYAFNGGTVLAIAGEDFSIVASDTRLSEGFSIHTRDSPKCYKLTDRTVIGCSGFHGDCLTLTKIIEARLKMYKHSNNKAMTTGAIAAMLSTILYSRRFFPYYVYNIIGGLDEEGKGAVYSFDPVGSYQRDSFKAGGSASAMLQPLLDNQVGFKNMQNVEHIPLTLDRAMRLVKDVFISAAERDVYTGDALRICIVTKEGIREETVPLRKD

Target: 20S proteasome (Oryctolagus cuniculus, UniProt G1T4Q9)
Test: Inhibition of the 20S proteasome peptidase activity (kinetic experiments)
Type: biochemical
Conditions: read-out: Ki 20S; Rabbit muscle, SDS-activated, substrate Suc-LLVY-AMC

SMILES	Ki [nM]
CC(C)C[C@@H](C=O)NC(=O)[C@H](CC(C)C)NC(=O)C1Cc2ccccc2CN1C(=O)OCc1ccccc1 (stereo partly drawn)	71
CC(C)C[C@@H](C=O)NC(=O)[C@H](CC(C)C)NC(=O)[C@H](CC(C)C)NC(=O)C(F)(F)F	34
CC(C)C[C@@H](C=O)NC(=O)[C@H](C)NC(=O)[C@@H]1CCCN1C(=O)OCc1ccccc1	700
CC(C)C[C@@H](C=O)NC(=O)[C@H](CC1CCCCC1)NC(=O)[C@H](Cc1c[nH]c2ccccc12)NC(=O)OCc1ccccc1	0.08
CC(C)C[C@@H](C=O)NC(=O)[C@H](CC1CCCCC1)NC(=O)[C@H](Cc1cccc2ccccc12)NC(=O)OCc1ccccc1	0.1
CC(C)CC(C=O)NC(=O)[C@H](Cc1ccccc1)NC(=O)OCc1ccccc1 (stereo partly drawn)	1000
CC(C)C[C@H](NC(=O)OC(C)(C)C)C(=O)N[C@@H](CC(C)C)C(=O)N[C@H](C=O)Cc1ccc(O)cc1	77
CC(C)CC(C=O)NC(=O)[C@H](Cc1cccc2ccccc12)NC(=O)N1CCOCC1 (stereo partly drawn)	97
CC(C)C[C@@H](C=O)NC(=O)[C@H](CC(C)C)NC(=O)[C@H](CC(C)C)NC(=O)N1CCOCC1	20

Other lines, results leading:

Ki [nM]	SMILES
8	CC(C)CC(C=O)NC(=O)[C@H](CC(C)C)NC(=O)[C@H](CC(C)C)NC(=O)CCCO (stereo partly drawn)
5.5	CC(C)C[C@@H](C=O)NC(=O)[C@H](CC(C)C)NC(=O)[C@H](CC(C)C)NC(=O)OCc1cccnc1
5.5	CC(C)C[C@@H](C=O)NC(=O)[C@H](CC(C)C)NC(=O)[C@H](CC(C)C)NC(=O)Cc1ccncc1
9.2	CC(C)C[C@@H](C=O)NC(=O)[C@H](CC(C)C)NC(=O)[C@H](CC(C)C)NC(=O)Cc1cccnc1
11	CC(C)C[C@@H](C=O)NC(=O)[C@H](CC(C)C)NC(=O)[C@H](CC(C)C)NS(=O)(=O)Cc1ccccc1
57	CC(C)C[C@@H](C=O)NC(=O)CC(O)[C@H](CC(C)C)NC(=O)[C@@H](CC(C)C)NC(=O)OCc1ccccc1 (stereo partly drawn)
0.19	CC(C)CC(C=O)NC(=O)[C@H](CC(C)C)NC(=O)[C@H](Cc1csc2ccccc12)NC(=O)OCc1ccccc1 (stereo partly drawn)
154	CC(C)C[C@H](NC(=O)OCc1ccccc1)C(=O)N[C@@H](CC(C)C)C(=O)N[C@@H](CC(C)C)[C@@H](O)CC=O
39	CC(C)CC(C=O)NC(=O)[C@H](CC(C)C)NC(=O)[C@H](CC(C)C)NC(=O)CCC(=O)O (stereo partly drawn)
557	CC(C)C[C@@H](C=O)NC(=O)[C@H](CC(C)C)NC(=O)CNC(=O)OCc1ccccc1
270	CC(C)C[C@@H](C=O)NC(=O)[C@H](CC(C)C)NC(=O)[C@H](CC(C)C)NC(=O)c1ccncc1
14	CC(C)C[C@H](NC(=O)OCc1ccccc1)C(=O)N[C@@H](CC(C)C)C(=O)NC(C=O)Cc1ccc(F)cc1 (stereo partly drawn)
